Assay results from the supplement of paper PMC12420376.

Tests used:
[1] = system: KURAMOCHI; assay: drug sensitivity score (DSS2) on cancer cell count; higher = more sensitive; extreme values may be limits of the assay; details: 72 h
Method in brief: (§1)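 Ovarian cancer cells were grown alone or in 1:1 direct co-culture with lung or skin fibroblasts. They were plated onto 384-well plates pre-spotted acoustically with 528 approved and investigational compounds at 5 concentrations, then treated for 72 h. Cells were fixed, immunostained for CK8/18 with Hoechst, and imaged at 10× (4 fields) to count cancer cells. A drug sensitivity score (DSS2) was derived in Breeze from 4-parameter logistic fits, with screen quality checked by Z'.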

[2] = system: OVCAR8; assay: as above; details: 72 h
Method in brief: as §1

[3] = co-cultured fibroblast: BJHTERT
[4] = co-cultured fibroblast: none (monoculture)

Question: Which drug sensitivity score [1, 3] does the source give for NCc1ccc(OCCCc2sc(-c3ccc4c(c3)/C(=N/Nc3nc5ccccc5s3)CCC4)nc2C(=O)O)cc1 [WEHI-539] here?
Answer: 1.9 DSS

Question: And the drug sensitivity score ([1]; co-cultured fibroblast: WI38)?
Answer: 0 DSS

Question: And the drug sensitivity score [1, 4]?
Answer: 1.1 DSS

Question: What about the drug sensitivity score [2, 3] of the same molecule?
Answer: 0 DSS

Question: What about the drug sensitivity score ([2]; co-cultured fibroblast: WI38) of the same molecule?
Answer: 0.9 DSS

Question: What about the drug sensitivity score [2, 4] of the same molecule?
Answer: 0.1 DSS
